One substance from patent US20030228621A1, “Common ligand universal enzyme assay and compositions for use therein” (priority 2002, published 2003) can be followed below.

The chains behind the UniProt entries cited, without tags or fusion partners. Where a name states a change or a piece, a line headed by the entry shows the natural chain unless it says otherwise.
UniProt P45568: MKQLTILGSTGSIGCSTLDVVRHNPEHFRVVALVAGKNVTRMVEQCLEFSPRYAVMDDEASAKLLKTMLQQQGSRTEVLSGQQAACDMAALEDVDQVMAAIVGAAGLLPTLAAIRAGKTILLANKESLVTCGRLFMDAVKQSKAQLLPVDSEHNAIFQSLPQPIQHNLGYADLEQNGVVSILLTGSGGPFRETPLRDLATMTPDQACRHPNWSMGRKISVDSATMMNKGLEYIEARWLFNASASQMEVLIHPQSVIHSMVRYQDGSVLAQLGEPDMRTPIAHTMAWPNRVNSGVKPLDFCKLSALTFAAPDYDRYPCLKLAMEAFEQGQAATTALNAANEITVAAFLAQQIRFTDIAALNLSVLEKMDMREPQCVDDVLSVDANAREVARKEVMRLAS
UniProt P0AEK4: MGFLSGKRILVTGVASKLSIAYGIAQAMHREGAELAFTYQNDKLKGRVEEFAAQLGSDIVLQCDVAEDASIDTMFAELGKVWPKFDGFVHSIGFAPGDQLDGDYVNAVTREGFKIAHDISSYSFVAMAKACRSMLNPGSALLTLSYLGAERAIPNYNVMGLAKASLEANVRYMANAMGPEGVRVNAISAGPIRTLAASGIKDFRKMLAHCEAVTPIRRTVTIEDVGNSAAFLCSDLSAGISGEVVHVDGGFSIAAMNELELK

For assay [1], the target named is Deoxy-D-xylulose 5-phosphate reductoisomerase (DOXPR) (Escherichia coli, UniProt P45568). The assay can be described thus: Enzyme activity in presence and absence of varying concentration of dye, DOXPR. The class given is biochemical. The settings on record: NADPH at sixteen times its Km; read-out: Inhibition (IC50, nM) DOXPR. Here is the method:
(§1) In search for specific ligands with potent binding to several dehydrogenases we screened our internal enzyme panel. In brief, activity of the enzymes was measured in the presence and absence of the varying concentration of the dyes.
In this assay, the oxidoreductase common ligand (NADPH) was employed at a concentration sixteen times its Km value. Use of such a high concentration of oxidoreductase common ligand results in a calculated IC50 value at least 17-fold that of the dissociation constant (Kd).

Assay [2] concerns the target Enoyl-acyl carrier protein reductase (EACPR) (Escherichia coli, UniProt P0AEK4). Briefly: Enzyme activity in presence and absence of varying concentration of dye, EACPR. The class given is biochemical. The settings on record: read-out: Inhibition (IC50, nM) EACPR. Here is the method: as §1

The term IC50 denotes the point on the concentration scale where inhibition reaches its midpoint. For the substance Reactive Green 5, the figures for the IC50 in assay [1] and in assay [2] were 270 nM and 210 nM, respectively.
